In patent US20220073553A1, “METHOD FOR EXTRACTING HIGH-PURITY POLYDEOXYRIBONUCLEOTIDE FROM SALMON TESTES” (Bio Medi pharm Co. Ltd., priority 2020, published 2022):
“And” between values parts separate entries of the source, which are not always exact repeats. Identical values can stand only once.

Tested on: sperm from regions of salmon testes
Test: Motility of sperm from regions of salmon testes after hormone treatment
Type: cell-based
Settings: for Motility after treatment (%): hCG at 100 IU/2 g testis
Description: The immature testicular regions A, B, and C are ground and diluted with an artificial seminal plasma. The grinding is performed by the following procedure. First, the testes are cut into small pieces with scissors such that the membranes surrounding the spermatids of the testes are peeled off. Thereafter, the exposed testicular regions A, B, and C are gently crushed with gloved hands. hCG is an abbreviation for human chorionic gonadotropin. The dilution is treated with hCG at a concentration of 25-200 IU/g to induce artificial sexual maturation of the testicular cells to sperm. Specifically, the dilution is treated with the predetermined amount of hCG under slow stirring with a low-speed impeller agitator. Here, care should be taken because a high speed of the impeller causes cell disruption, increasing the possibility that impurities may increase. Immature regions (except for regions D where semen leaks out, see FIG. 4) were collected by cutting the testes of male salmon. The motilities of sperm from testicular regions A and B were almost zero before treatment with hCG. The motility of sperm from testicular regions C was as low as 1% and the motility of sperm in the mature semen was 100%. After hCG treatment, the motility of sperm from testicular regions A was improved to around 3% whereas the motilities of sperm from testicular regions B and C were increased to 35% and 89%, respectively. […] Regions C of the testes of male salmon caught in a river in October were treated with three different types of hormones: hGC, luteinizing hormone-releasing hormone (LhRH), and DHP. When treated with LhRH and DHP, the motilities of sperm were as low as 5 and 4%, respectively. In contrast, the motility of sperm from the experimental group treated with hCG was as high as 80%, making it possible to produce semen with few impurities (Table 2). Regions C of the testes of male river salmon were diluted with a buffer solution and treated with different concentrations of hCG. The sperm motility was very low (2%) when regions C were untreated, increased steadily with increasing hCG concentration to 50 IU/g, and were ≥82% when treated with hCG at concentrations of 50-200 IU/g (Table 6). There were no differences in the motility of sperm from the untreated control even over time. The motility of sperm from the group treated with 25 IU/g testis increased to a maximum of 73% 1 h after treatment and was as high as 85% from 10 min after treatment. The motilities of sperm from the group treated with 50 IU/g testis were as high as ≥94% at 20-30 min after treatment. […] The motilities of sperm from the groups treated with 100 IU/g testis and 200 IU/g testis began to decrease from 30 min and 20 min after treatment, respectively. That is, the motilities of sperm from the groups treated with 50-200 IU/g testis decreased from when the treatment time exceeded 20 min (Table 7).

Q: How did the Sperm motility (regions C of male river salmon, hCG at concentrations of 50-200 IU/g) turn out when human chorionic gonadotropin [hCG] was run?
A: The Sperm motility was at least 82%.

Q: What about the “Sperm motility (%)” value (regions C of testes of male salmon caught in a river in October, treated with different types of hormones) of the same substance?
A: The value was 80% and 80 ± 5.2%.

Q: And the Sperm motility (regions C, hCG 50 IU/g testis, at 20-30 min after treatment)?
A: The Sperm motility was at least 94%.

Q: What about the “Sperm motility (%)” value (regions C, river salmon 2 km upstream, October, hCG 25 IU/g testis, 20 min after treatment) of the same substance?
A: Its value is 60 ± 8.5%.

Q: And the “Sperm motility (%)” value (regions C, river salmon 2 km upstream, October, hCG 25 IU/g testis, 30 min after treatment)?
A: The value was 70 ± 5.3%.

Q: What about the “Sperm motility (%)” value (regions C, river salmon 2 km upstream, October, hCG 25 IU/g testis, 60 min after treatment) of the same substance?
A: Its value is 73% and 73 ± 6.7%.

Q: And the “Sperm motility (%)” value (regions C, river salmon 2 km upstream, October, hCG 25 IU/g testis, 120 min after treatment)?
A: Its value is 65 ± 12.5%.

Q: What about the “Sperm motility (%)” value (regions C, river salmon 2 km upstream, October, hCG 50 IU/g testis, 10 min after treatment) of the same substance?
A: Its value is 85 ± 6.1%.

Q: What about the “Sperm motility (%)” value (regions C, river salmon 2 km upstream, October, hCG 50 IU/g testis, 20 min after treatment) of the same substance?
A: The value was 94 ± 5.3%.

Q: And the “Sperm motility (%)” value (regions C, river salmon 2 km upstream, October, hCG 50 IU/g testis, 30 min after treatment)?
A: Its value is 95 ± 7.3%.

Q: What about the “Sperm motility (%)” value (regions C, river salmon 2 km upstream, October, hCG 50 IU/g testis, 120 min after treatment) of the same substance?
A: The value was 32 ± 11.5%.

Q: And the “Sperm motility (%)” value (regions C, river salmon 2 km upstream, October, hCG 100 IU/g testis, 10 min after treatment)?
A: Its value is 88 ± 3.9%.

Q: What about the “Sperm motility (%)” value (regions C, river salmon 2 km upstream, October, hCG 100 IU/g testis, 20 min after treatment) of the same substance?
A: Its value is 92 ± 6.8%.

Q: What about the “Sperm motility (%)” value (regions C, river salmon 2 km upstream, October, hCG 100 IU/g testis, 30 min after treatment) of the same substance?
A: Its value is 91 ± 5.5%.

Q: And the “Sperm motility (%)” value (regions C, river salmon 2 km upstream, October, hCG 100 IU/g testis, 60 min after treatment)?
A: Its value is 73 ± 7.6%.

Q: And the “Sperm motility (%)” value (regions C, river salmon 2 km upstream, October, hCG 100 IU/g testis, 120 min after treatment)?
A: Its value is 12 ± 5.1%.

Q: What about the “Sperm motility (%)” value (regions C, river salmon 2 km upstream, October, hCG 200 IU/g testis, 10 min after treatment) of the same substance?
A: Its value is 82 ± 7.3% and 82 ± 4.4%.

Q: And the “Sperm motility (%)” value (regions C, river salmon 2 km upstream, October, hCG 200 IU/g testis, 20 min after treatment)?
A: The value was 95 ± 4.9%.

Q: What about the “Sperm motility (%)” value (regions C, river salmon 2 km upstream, October, hCG 200 IU/g testis, 30 min after treatment) of the same substance?
A: The value was 75 ± 7.6%.

Q: And the “Sperm motility (%)” value (regions C, river salmon 2 km upstream, October, hCG 200 IU/g testis, 60 min after treatment)?
A: Its value is 52 ± 7.3%.

Q: What about the “Sperm motility (%)” value (regions C, river salmon 2 km upstream, October, hCG 200 IU/g testis, 120 min after treatment) of the same substance?
A: The value was 5 ± 7.3%.

Q: What about the “Sperm motility (%)” value (regions C, river salmon (2 km upstream from the estuary), after hCG treatment) of the same substance?
A: The value was 80 ± 5.2%.

Q: And the “Sperm motility (%)” value (regions C, river salmon (2 km upstream) caught in December, after hCG treatment)?
A: Its value is 98 ± 3.8%.

Q: What about the “Sperm motility (%)” value (regions C, river salmon (2 km upstream) caught in November, after hCG treatment) of the same substance?
A: The value was 95 ± 4.8%.

Q: What about the “Sperm motility (%)” value (regions C, river salmon (2 km upstream) caught in October, after hCG treatment) of the same substance?
A: Its value is 97 ± 2.9%.

Q: What about the “Sperm motility (%)” value (regions C, river salmon (2 km upstream) caught in September, after hCG treatment) of the same substance?
A: The value was 85 ± 11.3%.

Q: And the “Sperm motility (%)” value (regions C, river salmon caught 1 km from the estuary, after hCG treatment)?
A: The value was 85% and 85 ± 4.2%.

Q: And the “Sperm motility (%)” value (regions C, river salmon caught 2 km from the estuary, after hCG treatment)?
A: The value was 97% and 97 ± 2.7%.

Q: And the “Sperm motility (%)” value (regions C, river salmon caught 3 km from the estuary, after hCG treatment)?
A: The value was 98% and 98 ± 1.8%.

Q: What about the “Sperm motility (%)” value (regions C, river salmon caught at distance 0 from the estuary, after hCG treatment) of the same substance?
A: Its value is 65% and 65 ± 8.9%.

Q: What about the “Motility after treatment (%)” value (testicular region B) of the same substance?
A: Its value is 35% and 35 ± 5.6%.

Q: What about the “Motility after treatment (%)” value (testicular region C) of the same substance?
A: The value was 89% and 89 ± 7.2%.
